Test results published in the supplement of paper PMC9942566.
± gives the standard deviation of the averaged measurements. The entries are a selection whose mix differs from that of the whole data set.

System: Serratia marcescens K904 PosmB-luxCDABE reporter (pMQ747)
Assay: PosmB-lux reporter fold induction (RLU/OD600 relative to no-compound control), highest over Biolog concentrations; higher = stronger Rcs reporter activation
Conditions: Biolog plate: PM18; well positions: D5-8; wild type K904; 4 h
Experimental: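 Serratia marcescens K904 (wild type) or its isogenic ΔrcsB mutant, carrying the Rcs-dependent PosmB-luxCDABE reporter plasmid pMQ747, was grown in LB at OD600 0.1 in Biolog Phenotype MicroArray plates PM11-20 for 4 h at 30-32°C. Each compound is present at 3-4 proprietary concentrations (not stated); per the Fig. S1 legend the value given is the highest fold over those wells. Three independent trials.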

Row | Structure (SMILES) | PosmB-lux reporter fold induction
1 | [O-][Br+2]([O-])O [sodium bromate] | 1.23 ± 0.28
